Data as given in USH1168H, “Inhibitors of protein kinase C activity as protectors against septic shock and reducers of ARDS” (priority 1991, dated 1993).
Entries after “also recorded” stand apart in the source; their conditions may differ.

Columns and labels:
[1] = tested on: rat aortic rings; assay: KCl-induced contraction of rat aortic rings after 16 h incubation with phorbol dibutyrate; assay type: cell-based
Method: (§1) (Panel B) Contraction to KCl by rings incubated and denoted with the same symbols as detailed above. Four rings were prepared from each rat and one ring allocated into each medium formulation to evaluate responses to NE. Rings were similarly prepared to determine responses to KCl. Data presented as in FIG. 1. N=6 rats apiece for assessment of responses to NE and KCl.
(§2) (Panel B) Contraction to KCl by rings incubated and denoted with the same symbols as detailed above. Four rings were prepared from each rat and one ring allocated into each medium formulation. Data is presented as in FIG. 1. N=8 rats for assessment of responses to both NE and KCl.
Tissue preparation and incubation. Male Sprague-Dawley rats (250-350 g, Taconic Farms, Germantown, N.Y.) were used. Rat thoracic aortic rings were prepared and incubated as detailed by McKenna (14). In brief, 4 or 6 rings were prepared from each rat. Care was taken during dissection to maintain the patency of the endothelium. Some aortas were de-endothelialized before sectioning into rings by perfusion with phosphate buffered saline (PBS) containing 1% deoxycholate for 30 sec followed by a PBS and bubble rinse for 5 min. Rings were incubated in DME (Dulbecco's Modified Eagle's medium) supplemented with 1% fetal calf serum, 100 μg/ml streptomycin, and 100 U/ml penicillin. During incubation, the rings were exposed to combinations of LPS (10 or 35 ng/ml), H7 (25 μM), HA1004 (N-(2-guanidinoethyl)-5-isoquinolinesulfonamide) (25 μM), sphingosine (20 μM), or their vehicles. […] Rings used in measures of contractile performance were placed individually in Petri dishes containing 1.2 ml DME and were distributed so that tissue isolated from each aorta was allocated to every combination of treatments within an experiment. […] All tissue isolated from an aorta (six rings) was allocated to a single treatment. […]
(§3) Measurement of aortic ring contraction. […] Contractions by six or eight rings were measured simultaneously and recorded on multichannel strip chart recorders. […]

[2] = tested on: rat aortic rings; assay: NE-induced contraction of rat aortic rings after 16 h incubation with phorbol dibutyrate; assay type: cell-based
Method: as §1, §2
Tissue preparation and incubation. Male Sprague-Dawley rats (250-350 g, Taconic Farms, Germantown, N.Y.) were used. Rat thoracic aortic rings were prepared and incubated as detailed by McKenna (14). In brief, 4 or 6 rings were prepared from each rat. Care was taken during dissection to maintain the patency of the endothelium. Some aortas were de-endothelialized before sectioning into rings by perfusion with phosphate buffered saline (PBS) containing 1% deoxycholate for 30 sec followed by a PBS and bubble rinse for 5 min. […]
as §3

[3] = tested on: rat aortic rings; assay: Direct contraction of rat aortic rings by phorbol dibutyrate; assay type: cell-based; conditions: rings incubated with LPS 10 ng/ml, then contracted with PDB
Method: Four rings were prepared from each rat and one ring allocated into each medium formulation. Data is presented as in FIG. 1.
Tissue preparation and incubation. Male Sprague-Dawley rats (250-350 g, Taconic Farms, Germantown, N.Y.) were used. Rat thoracic aortic rings were prepared and incubated as detailed by McKenna (14). In brief, 4 or 6 rings were prepared from each rat. Care was taken during dissection to maintain the patency of the endothelium. Some aortas were de-endothelialized before sectioning into rings by perfusion with phosphate buffered saline (PBS) containing 1% deoxycholate for 30 sec followed by a PBS and bubble rinse for 5 min. Rings were incubated in DME (Dulbecco's Modified Eagle's medium) supplemented with 1% fetal calf serum, 100 μg/ml streptomycin, and 100 U/ml penicillin. During incubation, the rings were exposed to combinations of LPS (10 or 35 ng/ml), H7 (25 μM), HA1004 (N-(2-guanidinoethyl)-5-isoquinolinesulfonamide) (25 μM), sphingosine (20 μM), or their vehicles. […] Rings used in measures of contractile performance were placed individually in Petri dishes containing 1.2 ml DME and were distributed so that tissue isolated from each aorta was allocated to every combination of treatments within an experiment. […]
as §3

[4] = tested on: protein kinase C; assay: Protein kinase C activity in rat aortic rings after 16 h incubation; assay type: biochemical
Method: Tissue preparation and incubation. Male Sprague-Dawley rats (250-350 g, Taconic Farms, Germantown, N.Y.) were used. Rat thoracic aortic rings were prepared and incubated as detailed by McKenna (14). In brief, 4 or 6 rings were prepared from each rat. Care was taken during dissection to maintain the patency of the endothelium. Some aortas were de-endothelialized before sectioning into rings by perfusion with phosphate buffered saline (PBS) containing 1% deoxycholate for 30 sec followed by a PBS and bubble rinse for 5 min. Rings were incubated in DME (Dulbecco's Modified Eagle's medium) supplemented with 1% fetal calf serum, 100 μg/ml streptomycin, and 100 U/ml penicillin. During incubation, the rings were exposed to combinations of LPS (10 or 35 ng/ml), H7 (25 μM), HA1004 (N-(2-guanidinoethyl)-5-isoquinolinesulfonamide) (25 μM), sphingosine (20 μM), or their vehicles. […] Rings used in measures of contractile performance were placed individually in Petri dishes containing 1.2 ml DME and were distributed so that tissue isolated from each aorta was allocated to every combination of treatments within an experiment. […] All tissue isolated from an aorta (six rings) was allocated to a single treatment. The media and rings were rotated gently for 16-18 hr in an incubator at 37° C. under a 95% O2 -5% CO2 atmosphere.
Statistics. […]

[5] = 0.1 μM PDB, long-term incubation

CCCC(=O)O[C@@H]1[C@@H](C)[C@@]2(O)[C@@H](C=C(CO)C[C@]3(O)C(=O)C(C)=C[C@@H]23)[C@@H]2C(C)(C)[C@]12OC(=O)CCC [PDB, 4β-phorbol-12,13-dibutyrate]
maximum contraction or sensitivity to KCl [1, 5]: ineffective in altering maximum contraction or sensitivity to NE or KCl | sensitivity to KCl ([1]; 10 μM PDB): less sensitive to KCl | contractions when stimulated with KCl ([1]; 1 or 10 μM PDB): significantly diminished contractions | maximum contraction or sensitivity to NE; contractile defects [2, 5]: ineffective in altering maximum contraction or sensitivity to NE or KCl; also recorded: did not induce contractile defects | maximal contraction and sensitivity to NE ([2]; 1 or 10 μM PDB, 18 hr): significantly impaired in maximal contraction and sensitivity to NE | maximum contractile performance to PDB after LPS [3]: performed much better than identically incubated sister rings contracted with NE | PKC activity in the cytosolic fraction ([4]; PDB 1.0 μM or LPS 10 ng/ml, 16 h): large decreases in PKC activity in the cytosolic fraction; also recorded: significantly less cytosolic PKC activity in PDB-incubated rings in comparison to LPS-incubated rings | PKC activity in the membrane fraction ([4]; PDB 1.0 μM, long-term incubation): nonsignificant decreases in the membrane fraction
